# Yeast mating assay 1: variants of the scFv Ab-14

Reference: Engelhart et al. 2022, doi:10.1038/s41597-022-01779-4. File: FLAb, binding data.

All variants were tested on one target, the spike HR2 peptide PDVDLGDISGINAS (SARS-CoV-2).

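Phage display of a naive human antibody library on the peptide gave the parent. The library (AAYL50) carries one to three amino acid substitutions per variant, with no insertions or deletions. AlphaSeq pools MATa yeast showing the antibodies with MATalpha yeast showing the peptide. Mating (16 h, 30 °C) was followed by selection of diploids and sequencing of their barcodes. A regression on co-assayed BCL2-family reference pairs converts the normalised counts of each replicate to an apparent Kd. The assay was run in three technical replicates.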

The variants keep the heavy chain, the linker and the frameworks of Ab-14 (scFv order VH, the linker GGGGSGGGGSGGGGS, VL).
VH: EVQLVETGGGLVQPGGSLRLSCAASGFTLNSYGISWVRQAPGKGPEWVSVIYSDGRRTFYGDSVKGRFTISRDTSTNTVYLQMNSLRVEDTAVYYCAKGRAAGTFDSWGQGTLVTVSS
VL: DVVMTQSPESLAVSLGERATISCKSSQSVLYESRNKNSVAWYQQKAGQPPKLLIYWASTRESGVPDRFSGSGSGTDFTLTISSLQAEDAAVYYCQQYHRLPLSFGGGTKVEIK

Positions count from residue 1 of the parent VL; K36D puts D in place of K.
This list gathers variants with a substitution at H98 (VL, numbered from residue 1).
The read-out is the apparent dissociation constant on a log10 scale (nM): the lower, the stronger.
The mean shown is taken over the replicates in which the pair was detected.
A pair that was not seen in that replicate is written "nd"; this usually means weak binding, but a binder can also be missed.

changes	log10 Kd (nM) by replicate	mean, log10 nM	empty controls
K36D/V39R/H98M	4.14 3.75 4.79	4.23	0/9
Q95L/H98V	4.00 2.06 2.60	2.89	0/9
S38R/E61V/H98S	2.13 2.55 1.96	2.21	1/9 (3.39)
Q96M/H98C/S103T	nd nd nd	nd	1/9 (3.73)
Q27A/L30K/H98K	1.22 1.28 1.52	1.34	0/9
A57N/H98K/P101R	nd 3.67 nd	3.67	1/9 (2.78)
S28A/Q96V/H98A	nd nd nd	nd	0/9
S25G/S26K/H98L	1.45 1.65 1.66	1.59	6/9 (3.97)
L30M/H98N	1.99 2.02 2.14	2.05	3/9 (3.71)
K24P/R60M/H98F	nd nd nd	nd	0/9
S28P/S62Y/H98L	2.25 2.03 2.50	2.26	4/9 (5.51)
A57N/E61A/H98R	3.01 4.02 3.69	3.57	1/9 (4.46)
Y31F/H98N	0.27 0.74 0.39	0.47	2/9 (2.85)
R60V/H98A/S103P	nd nd 3.99	3.99	1/9 (3.33)
N37E/S58P/H98C	nd 3.45 nd	3.45	0/9
N35A/H98Q/P101L	3.42 3.50 3.04	3.32	0/9
N35P/H98T/L100Q	1.70 2.18 1.95	1.94	3/9 (4.54)
S38R/H98M/L100T	nd 4.75 4.73	4.74	6/9 (4.64)
Y31C/N35C/H98D	3.53 nd 3.76	3.65	0/9
W56A/H98R/S103R	nd nd 5.45	5.45	1/9 (2.41)
A57S/R60Q/H98Y	nd 2.93 nd	2.93	1/9 (3.75)
S25V/T59W/H98E	0.28 0.66 0.56	0.50	3/9 (4.69)
N37P/W56V/H98N	nd nd nd	nd	1/9 (5.40)
Y31L/H98W	1.22 1.24 1.39	1.28	4/9 (4.57)
S33I/Y97Q/H98E	nd nd nd	nd	1/9 (4.91)
Y31Q/S33K/H98G	nd nd nd	nd	0/9
A40G/R60F/H98V	nd nd nd	nd	3/9 (4.20)
E32D/S58T/H98Y	0.42 0.68 0.63	0.58	0/9
S28M/A40I/H98N	nd nd nd	nd	0/9
N35R/H98Q/R99G	3.69 2.93 5.16	3.92	3/9 (4.04)
H98D/S103M	1.24 1.29 1.32	1.28	1/9 (4.08)
A57Q/H98I/L102G	nd nd nd	nd	0/9
K24E/S25N/H98A	3.39 2.59 3.32	3.10	0/9
N37L/H98K/R99V	1.72 2.14 1.43	1.76	1/9 (2.73)
R34L/Q95T/H98Q	nd nd nd	nd	3/9 (4.23)
T59W/H98L	2.52 2.78 3.94	3.08	3/9 (3.95)
K36F/S62Q/H98T	nd 2.51 nd	2.51	1/9 (3.14)
S28G/N35M/H98G	nd nd nd	nd	0/9

Picked from the list: the 3 lowest averages where every replicate gave a value.

{"changes": "Y31F/H98N", "log10 Kd (nM) by replicate": "0.27 0.74 0.39", "mean, log10 nM": "0.47", "empty controls": "2/9 (2.85)"}
{"changes": "S25V/T59W/H98E", "log10 Kd (nM) by replicate": "0.28 0.66 0.56", "mean, log10 nM": "0.50", "empty controls": "3/9 (4.69)"}
{"changes": "E32D/S58T/H98Y", "log10 Kd (nM) by replicate": "0.42 0.68 0.63", "mean, log10 nM": "0.58", "empty controls": "0/9"}

For reference, the parent read 0.65 as the reference entry and 1.68 as a member of this library.
Background: pairings of library AAYL50 with three empty control strains gave a value in 18% of cases (median 4.19, 5th percentile 2.99). Values in that range, when seen in few replicates, are hard to tell from nonspecific mating. For each scFv, signals with the empty controls are counted beside the result, with their mean in brackets.